In patent publication US20050148631A1, “Amino heterocyclyl inhibitors of 11-beta-hydroxy steroid dehydrogenase type 1” (AGOURON PHARMACEUTICALS, INC., priority 2003, published 2005) one finds inhibition data, which are given here for one compound.

Amino acid sequences for entries named in this document (tags omitted).
UniProt P28845, whole entry, species assumed: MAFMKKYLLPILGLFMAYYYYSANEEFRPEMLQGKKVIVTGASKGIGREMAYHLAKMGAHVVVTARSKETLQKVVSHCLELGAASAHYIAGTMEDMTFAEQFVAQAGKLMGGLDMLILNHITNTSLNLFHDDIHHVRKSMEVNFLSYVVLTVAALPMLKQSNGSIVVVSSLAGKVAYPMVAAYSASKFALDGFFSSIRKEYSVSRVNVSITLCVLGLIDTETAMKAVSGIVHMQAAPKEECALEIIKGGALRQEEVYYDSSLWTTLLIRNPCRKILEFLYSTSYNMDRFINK

This assay addresses 11β-hsd-1 enzyme (Homo sapiens, UniProt P28845). Kind of assay: 11β-hsd-1 enzyme assay, percentage of inhibition (3H-cortisone to cortisol, radio-HPLC). In kind it is biochemical. The conditions noted are these: read-out: % inh @ 0.1 uM.

As for `N#Cc1ccc(-c2ccc(S(=O)(=O)Nc3cccc(N)n3)cc2)cc1` [Example 61], the inhibition at 0.1 µM is 98.6%.
